In publication PMC12631985 (Environmental Science & Technology, 2025):

System: AR mRNA
Experiment: Quantitative RT-PCR for DHT-induced AR mRNA expression in 22Rv1/MMTV-GRKO cells
Format: cell-based, human
Conditions: with DHT; highest noncytotoxic concentration (≥80% viability); n = 3

CC(O)(CS(=O)(=O)c1ccc(F)cc1)C(=O)Nc1ccc(C#N)c(C(F)(F)F)c1 (stereo not shown) [bicalutamide, reference compound]
reduction in AR mRNA levels compared to the DHT-only treatment group: 62.5%
